The text below walks through data of ChEMBL document CHEMBL5537193, “Multitargeting HDAC Inhibitors Containing a RAS/RAF Protein Interfering Unit” (J Med Chem, 2024).

The target in this assay is T1, Polyamine deacetylase HDAC10 (Homo sapiens, UniProt Q969S8).
T1 sequence (Q969S8 whole entry): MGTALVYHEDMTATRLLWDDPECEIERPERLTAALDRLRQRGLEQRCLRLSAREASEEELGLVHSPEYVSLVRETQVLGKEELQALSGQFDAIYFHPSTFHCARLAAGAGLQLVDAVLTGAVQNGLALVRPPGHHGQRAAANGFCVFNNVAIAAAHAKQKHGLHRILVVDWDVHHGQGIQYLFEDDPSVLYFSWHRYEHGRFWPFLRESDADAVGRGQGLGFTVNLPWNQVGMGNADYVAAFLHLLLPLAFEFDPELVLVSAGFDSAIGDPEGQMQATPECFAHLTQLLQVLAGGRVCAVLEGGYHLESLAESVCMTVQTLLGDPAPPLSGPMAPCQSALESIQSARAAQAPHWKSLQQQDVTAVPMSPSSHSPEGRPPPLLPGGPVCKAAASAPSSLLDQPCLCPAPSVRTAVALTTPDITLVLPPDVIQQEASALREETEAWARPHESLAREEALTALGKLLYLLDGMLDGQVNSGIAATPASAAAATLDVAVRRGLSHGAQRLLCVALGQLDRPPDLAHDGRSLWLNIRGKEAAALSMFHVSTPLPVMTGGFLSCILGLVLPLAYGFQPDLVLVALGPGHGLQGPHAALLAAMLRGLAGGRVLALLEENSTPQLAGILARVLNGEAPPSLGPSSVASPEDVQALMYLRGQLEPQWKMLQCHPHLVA
In words: Inhibition of HDAC10 (unknown origin).

On to `O=C(CCCCCCC(=O)Nc1ccccc1)NO` [VORINOSTAT], for which the IC50 came out at 349 nM.
